Tested on: weed combination
Experiment: Herbicidal activity of citric acid alone, pre-emergence, covered pots
Type: in vivo
Conditions: 28 d after treatment; citric acid 200 mg/kg soil
Experimental: The weeds used in these tests were the same as those used in Example 4, and observations were made of the effects on individual weeds as well as the weed population as a whole.
A stock solution of citric acid was made in the manner described in Example 4, and all other test parameters were likewise the same as in Example 4. Weed counts were taken from the various pots at intervals of 7, 12, and 28 days after application of the citric acid, and data analyses were performed in the same manner as Example 1.

## O=C(O)CC(O)(CC(=O)O)C(=O)O [C6H8O7, 2-hydroxy-1,2,3-propanetricarboxylic acid]
  Weeds Per Pot (weed combination): 22.5
